From publication PMC3159548 (Biochemical pharmacology, 2011)

Protein sequences, listed by entry. Tags and fused reporters are not part of them.
UniProt P10632, whole entry: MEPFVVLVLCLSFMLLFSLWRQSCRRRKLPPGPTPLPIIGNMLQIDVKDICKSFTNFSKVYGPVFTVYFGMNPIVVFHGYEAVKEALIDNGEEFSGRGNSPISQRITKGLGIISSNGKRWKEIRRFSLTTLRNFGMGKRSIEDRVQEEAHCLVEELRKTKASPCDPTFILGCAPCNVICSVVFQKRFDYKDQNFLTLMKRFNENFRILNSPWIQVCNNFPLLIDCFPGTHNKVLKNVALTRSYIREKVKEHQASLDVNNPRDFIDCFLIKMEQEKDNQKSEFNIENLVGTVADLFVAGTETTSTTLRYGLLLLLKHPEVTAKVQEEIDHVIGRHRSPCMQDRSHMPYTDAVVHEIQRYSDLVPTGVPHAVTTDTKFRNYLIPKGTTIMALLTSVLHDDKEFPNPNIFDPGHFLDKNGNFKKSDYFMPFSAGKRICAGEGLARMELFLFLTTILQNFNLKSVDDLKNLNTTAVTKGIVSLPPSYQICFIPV
UniProt P10632, whole entry R139K/K399R: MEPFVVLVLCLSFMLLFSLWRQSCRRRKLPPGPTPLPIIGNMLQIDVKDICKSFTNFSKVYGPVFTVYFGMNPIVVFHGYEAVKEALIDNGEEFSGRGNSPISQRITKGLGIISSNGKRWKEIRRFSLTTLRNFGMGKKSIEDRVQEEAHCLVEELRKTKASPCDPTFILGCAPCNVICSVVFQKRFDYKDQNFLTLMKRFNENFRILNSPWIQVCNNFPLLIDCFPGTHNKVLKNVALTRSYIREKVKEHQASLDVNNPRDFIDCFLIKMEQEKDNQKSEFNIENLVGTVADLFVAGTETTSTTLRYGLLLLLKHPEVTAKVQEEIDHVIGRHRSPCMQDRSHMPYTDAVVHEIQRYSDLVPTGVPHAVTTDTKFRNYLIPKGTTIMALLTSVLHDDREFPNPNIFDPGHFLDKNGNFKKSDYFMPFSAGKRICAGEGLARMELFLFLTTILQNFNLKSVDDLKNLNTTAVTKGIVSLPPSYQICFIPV

How the values were obtained:
[1] = target: CYP2C8.1 (Homo sapiens, UniProt P10632); conditions: for kcat: 1:2:1
[2] = target: T1, CYP2C8.3 (Homo sapiens, UniProt P10632, K399R/R139K); conditions: for kcat: 1:2:1
[3] = target: T1, CYP2C8.3; conditions: absence of cytochrome b5 in the reconstitution system; CPR:CYP2C8 2:1
[4] = system: CYP2C8; conditions: excess of cytochrome b5 (up to 10:1)
[5] = target: T1, CYP2C8.3; assay: Equilibrium spectral binding of ligands and redox cofactors to purified CYP2C8.3; conditions: CYP2C8.3 in comparison to CYP2C8.1

substrate inhibition ([1]; CYP2C8.1): negligible
kcat ([1]; RG N-de-methylation): 0.38 ± 0.02 nmol nmol P450^−1 min^−1
kcat ([1]; RG p-hydroxylation): 0.42 ± 0.03 nmol nmol P450^−1 min^−1
fold higher Clint (kcat/Km) for CYP2C8.3 compared to CYP2C8.1 ([2]; DEAQ formation, p-hydroxy and N-de-methyl RG, PAC 6α-hydroxylation): up to 3 fold
kcat ([2]; RG N-de-methylation): 2.7 ± 0.1 (***) nmol nmol P450^−1 min^−1
kcat ([2]; RG p-hydroxylation): 3.0 ± 0.1 (***) nmol nmol P450^−1 min^−1
activity of CYP2C8.3 compared to CYP2C8.1 [3]: less active
inhibition of CYP-activity by cytochrome b5 [4]: strong inhibition
% change in Bmax, first binding event [5]: +5%
% change in Bmax, second binding event [5]: +258%
SMILES: CN(CCOc1ccc(CC2SC(=O)NC2=O)cc1)c1ccccn1 (stereo not shown) [RG, rosiglitazone]

Where two headings read alike, the source gives them in different places.
